Binding of CDR-mutated scFvs to a peptide of the spike HR2 region

Source: Engelhart et al. 2022 (doi:10.1038/s41597-022-01779-4), MIT Lincoln Laboratory and A-Alpha Bio; data file from the FLAb repository.

Binding partner: SARS-CoV-2 spike HR2 peptide, sequence PDVDLGDISGINAS.

Parent: Ab-14, a human scFv built as VH, a 15-residue (Gly4Ser)3 linker, VL. Only the CDRs of the heavy chain vary.
VH: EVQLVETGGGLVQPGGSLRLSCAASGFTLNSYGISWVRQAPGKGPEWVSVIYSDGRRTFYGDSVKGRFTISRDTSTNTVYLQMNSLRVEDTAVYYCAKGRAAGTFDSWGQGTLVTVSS
VL: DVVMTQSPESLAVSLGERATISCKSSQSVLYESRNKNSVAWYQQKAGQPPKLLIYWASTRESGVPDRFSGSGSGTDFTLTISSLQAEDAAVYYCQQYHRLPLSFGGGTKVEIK

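The starting antibody came from a phage panning campaign against this peptide. In library AAYL49, one, two or three CDR residues were substituted; doubles and triples were drawn at random. AlphaSeq pools MATa yeast showing the antibodies with MATalpha yeast showing the peptide. Mating (16 h, 30 °C) was followed by selection of diploids and sequencing of their barcodes. The ratio of observed to expected reads was calibrated, replicate by replicate, on BCL2-family standards whose Kd was known from biolayer interferometry. The assay was run in three technical replicates.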

Variants are written as CDR1, CDR2 and CDR3 of the heavy chain (limits as in the source). Parent: GFTLNSYGIS, VIYSDGRRTFYGDSVK, GRAAGTFDS.
Affinities are written as log10 Kd with Kd in nM; a lower number is a better binder.
The mean shown is taken over the replicates in which the pair was detected.
"ND" means that the variant was in the library but no mating with the target was seen in that replicate; the authors take this as a sign of poor binding, and no number exists.
Parent in this assay: reference entry 0.65, copy in this library 4.11 (one replicate of three).
Three control strains display no target. For library AAYL49, 15% of the pairings with them gave a signal, with a median of 4.06 and one signal in twenty below 2.83, so weak values seen in few replicates may be background. For each scFv, signals with the empty controls are counted beside the result.

Variant GFTLNSYGCG | VIYSDGRRTFYGDSVI | GRAAGTFDS showed ND, ND, ND (controls 0 of 9).
Variant GFTLNSYGII | VDYSDGRRTFYGDSVK | GRAAGTFCS showed ND, ND, 4.04 (controls 0 of 9).
Variant GFTLNSYCIG | VIFSDGRRTFYGDSVK | GRAAGTFDS showed 3.66, ND, 2.92 (mean 3.29; controls 2 of 9).
Variant GFTLNSYLIS | VIYSDGNRTFYGDSVC | GRAAGTFDS showed ND, ND, ND (controls 0 of 9).
Variant GVTLNSYGIS | VIYSDGRRTGYLDSVK | GRAAGTFDS showed 2.06, 2.57, 2.40 (mean 2.34; controls 3 of 9).
Variant GFTLNSYGIS | VIYSDGNRTFYGDGVK | GRAAGTDDS showed ND, ND, ND (controls 1 of 9).
Variant DFTLNSVGIS | VIYSDGRRTFYGDSVK | GRRAGTFDS showed ND, 4.12, ND (controls 0 of 9).
Variant GFQLNSGGIS | VIYSDGRRTFYGDSVG | GRAAGTFDS showed ND, ND, ND (controls 1 of 9).
Variant GFTLNSYGIS | VAYSDGWRTFYGDSQK | GRAAGTFDS showed ND, ND, ND (controls 0 of 9).
Variant GFTLNSYGIS | VIYSDGRNTAYGDSVK | GRAAGTYDS showed 4.22, ND, ND (controls 0 of 9).
Variant GFTLNSYGIS | VIYSVGRRTFYGFSVK | GRAAGCFDS showed ND, ND, ND (controls 0 of 9).
Variant WQTLNSYGIS | VIYSDGRRTFYGDSVK | GPAAGTFDS showed ND, ND, ND (controls 1 of 9).
Variant GFTLNSYGVS | VIYSDGRWTFYGDSVR | GRAAGTFDS showed ND, ND, ND (controls 0 of 9).
Variant GMTLNSYGIS | VIYSDGRRTMYGDSVK | GRAAGIFDS showed ND, ND, ND (controls 0 of 9).
Variant GFTLNSCGIS | VISSDGRRTSYGDSVK | GRAAGTFDS showed ND, ND, ND (controls 3 of 9).
Variant GFYLNSYGIW | VIYSHGRRTFYGDSVK | GRAAGTFDS showed 4.07, ND, ND (controls 4 of 9).
Variant GFTLNSYGIS | VICSDGRRTDYGDSVK | GRAAGTFDS showed ND, 4.96, ND (controls 1 of 9).
Variant GFTHNSYGIS | VIYSDGRRTFYGDSVK | GRAAGTFPH showed ND, ND, 2.73 (controls 0 of 9).
Variant GWTLNSYGIS | VIYSDGRRHFYGNSVK | GRAAGTFDS showed 3.93, 4.10, 3.78 (mean 3.94; controls 0 of 9).
Variant GFTLNSYGIS | VIYSDGRGTFYGDSVP | GRAAGTFLS showed 4.68, 3.03, ND (mean 3.86; controls 3 of 9).
Variant GFTLNSYGIS | VEYSDGRRTFYVDSVK | GRAAGTRDS showed ND, ND, ND (controls 0 of 9).
Variant GFTLNSYRIS | VIYSMGRRTFYGDSVG | GRAAGTFDS showed 4.39, 3.54, ND (mean 3.96; controls 0 of 9).
Variant GFTLNSYWMS | VIYSDGRRTFYGDSVK | GRAAGTFDS showed ND, 4.71, ND (controls 3 of 9).
Variant GFTLNSYGIS | VIYSDVRRTGYGDSVK | GRAAGTFDH showed ND, ND, ND (controls 0 of 9).
Variant GFTLNSYGIS | VIYWDGRRTFYGDSVK | GRAYGTYDS showed 3.94, 3.53, 2.92 (mean 3.46; controls 1 of 9).
Variant GFTNNSYGIS | VIYSDGRRTDYGDSVK | GRAEGTFDS showed ND, ND, ND (controls 1 of 9).
Variant GFTLNSYGIG | VAYSDGRRTEYGDSVK | GRAAGTFDS showed ND, 4.66, ND (controls 2 of 9).
Variant GFTLNSYGIS | VIYSDGRRTFYGDEVK | GRAAGTFHF showed ND, ND, ND (controls 2 of 9).
Variant GFTLNSYGIS | VIYSDDRRTFYGDSVK | GRAAGTFEV showed ND, ND, ND (controls 2 of 9).
Variant GFTLNSYGPS | VIYSDGRRTFYGESVK | GRAVGTFDS showed ND, ND, ND (controls 1 of 9).
Variant GFTLNSYGIS | VIYSDGRRTFCGDSVK | GRADGFFDS showed 2.47, 2.63, 2.23 (mean 2.44; controls 0 of 9).
Variant GFTLNSYMIS | VPYSDGRRTFYGDSVK | GRAALTFDS showed ND, ND, ND (controls 0 of 9).
Variant GFTLNSYGIQ | VIYSDGRRTFYGDSVD | FRAAGTFDS showed ND, ND, ND (controls 0 of 9).
Variant GFMLNSYGIS | VIYSDGRRTFYPDEVK | GRAAGTFDS showed 2.86, 3.07, 3.74 (mean 3.22; controls 1 of 9).
Variant GMTLNSYGIS | VIYSDGRRTFYGPSVK | GRAAGMFDS showed 3.51, 2.94, 3.03 (mean 3.16; controls 3 of 9).
Variant GLTLNSYGIS | VIYSDGRRTFYKDSVK | GMAAGTFDS showed ND, ND, ND (controls 1 of 9).
Variant GSTLNSYGIS | VSYSDSRRTFYGDSVK | GRAAGTFDS showed ND, ND, ND (controls 0 of 9).
Variant GFTNNSYGIS | VIYSDTRRTFYGDSVK | GRAAGTFDS showed ND, 4.29, ND (controls 2 of 9).
Variant GNTLNSYGIS | VIYSDHRRTFYGDLVK | GRAAGTFDS showed 4.90, ND, ND (controls 0 of 9).
Variant GFTLNSYGIS | YIYEDGRRTFYGDRVK | GRAAGTFDS showed ND, ND, ND (controls 0 of 9).
Variant GFTLNSYGIS | VIYSDGRRTFYGQSVI | GRAEGTFDS showed 4.74, 3.56, 3.16 (mean 3.82; controls 3 of 9).
Variant GFTLNSYGIA | VIYSDGRRTFYMDSVK | GRAAGTFDS showed ND, ND, ND (controls 0 of 9).
Variant RFTLNSYGIS | VIISDGRRTFYGDSVK | KRAAGTFDS showed ND, ND, 3.92 (controls 5 of 9).
Variant GFTLNSYGIS | VIYSDGRRTFYPDSVK | GRARGTFDS showed 1.81, 1.75, 1.81 (mean 1.79; controls 5 of 9).
Variant GFTLNSYGCS | VISSDGRRTFWGDSVK | GRAAGTFDS showed ND, ND, ND (controls 2 of 9).
Variant GFTLNVYGIS | VIYSDGRRTFYGDSVK | ERAAGTFAS showed ND, ND, ND (controls 0 of 9).
Variant NFTLNSYGIS | VIYSDGRRTFYGDSFK | GRAAGTFDL showed 1.92, 1.55, 1.59 (mean 1.69; controls 3 of 9).
Variant GFTLNVYGIS | VIYSDIRRDFYGDSVK | GRAAGTFDS showed ND, ND, ND (controls 0 of 9).
Variant GFTLNSYKIS | VICSDGRRTFYGDSVK | GRAAGRFDS showed ND, 4.19, ND (controls 1 of 9).
Variant GFTLNSYGIS | VIYSDRMRTFYTDSVK | GRAAGTFDS showed ND, ND, ND (controls 2 of 9).